{"sequences": {"note": "Sequences of proteins named here, by UniProt entry; tags and fusion partners are left off. Residues count along the entry.", "UniProt P19493, 403-902 P403Q/C447S/C550S/S674C": "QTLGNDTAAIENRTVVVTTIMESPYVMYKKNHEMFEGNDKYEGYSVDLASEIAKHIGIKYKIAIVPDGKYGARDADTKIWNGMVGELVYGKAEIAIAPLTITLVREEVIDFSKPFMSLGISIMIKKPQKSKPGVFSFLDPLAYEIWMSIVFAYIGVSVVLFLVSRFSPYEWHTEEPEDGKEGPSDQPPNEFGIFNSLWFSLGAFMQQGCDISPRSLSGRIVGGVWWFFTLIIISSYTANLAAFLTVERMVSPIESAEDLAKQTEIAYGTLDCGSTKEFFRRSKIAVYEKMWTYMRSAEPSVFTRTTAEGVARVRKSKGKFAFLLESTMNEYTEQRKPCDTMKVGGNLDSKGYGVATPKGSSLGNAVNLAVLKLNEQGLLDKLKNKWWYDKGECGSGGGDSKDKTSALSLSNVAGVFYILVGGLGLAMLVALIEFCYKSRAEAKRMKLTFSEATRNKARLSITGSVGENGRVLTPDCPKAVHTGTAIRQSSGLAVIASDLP"}, "source": "paper PMC2630883", "about": "(Biochemistry, 2008)", "molecular_target": "GluR4 AMPA receptor (histag-ΔN*-AMPA-S653C) (Rattus norvegicus, UniProt P19493, C447S/C550S/P403Q/S674C)", "assay": "biochemical"}
{"smiles": "Cc1onc(O)c1CC(N)C(=O)O", "note": "(stereo not drawn) [AMPA, α-amino-5-methyl-3-hydroxy-4-isoxazolepropionic acid]", "values": [{"measurement": "Kd", "result": "88 ± 10", "unit": "nM"}]}
